US20050250853A1, “Beta-tubulin inhibitors” (priority 1999, published 2005)

How the values were obtained:
β-tubulin [1] = assay: Competition with antimicrotubule agents for the site of β-tubulin alkylation; type: cell-based, human
Protocol: FIG. 6. Identification of the site of alkylation of β-tubulin by CEU: competition with antimicrotubule agents. […] Data are representative of three different experiments.
Samples (1×10^5 cells) were analyzed by 10% SDS-PAGE using the Laemmli system (15). Membranes were then incubated with PBSMT (PBS, pH 7.4, 5% fat-free dry milk and 0.1% Tween-20) for 1 h at room temperature, and then with 1:500 monoclonal anti-β-tubulin (clone TUB 2.1, Sigma) or 1:400 anti (clone no. SDL.3D10, Sigma) for 1 h. […] Membranes were washed with PBSMT and incubated with 1:2500 peroxidase-conjugated anti-mouse immunoglobulin (Amersham Canada, Oakville, Canada) in PBSMT for 30 min. Detection of the immunoblot was carried out with the ECL Western blotting detection reagent kit (Amersham Canada, Oakville, Canada).
The latter agents were used because they have well defined binding sites on β-tubulin (24-28) and because they were expected to inhibit alkylation by CEU if they shared a common binding site. […] These putative alkylation sites are two nucleophilic mercapto groups of cysteine residues at positions 239 and 354, respectively (25). To assess the possible alkylation of these mercapto residues by CEU, MDA-MB-231 cells were treated with 4-tBCEU in the presence of iodoacetamide, a specific thiol alkylating agent (31, 32). […] Similar experiments were carried out using EBI, a bifunctional alkylating agent that specifically induces cross-linking between Cys239 and Cys354 of β-tubulin (32).

β-tubulin [2] = assay: Separation of soluble and polymerized tubulins, Western blot of β-tubulin; type: cell-based, human; conditions: MDA-MB-231 cells, 30 μM, 24 h and 48 h, free tubulin fraction
Protocol: FIG. 2. Effects of CEU derivatives on microtubule depolymerization. Exponentially growing MDA-MB-231 cells were incubated in the absence or the presence of 30 μM of CEU derivatives including (A) 4-tBCEU, 4-iPCEU or 4-sBCEU for 24 and 48 h respectively; (B) 2-ECEU, 3-ECEU or 4-ECEU for 24 and 48 h; and (C) 4-tBEU, 4-iPEU, 4-sBEU, 4-tBCPU, CEU or 4-methoxyCEU for 48 h. Free tubulin and microtubule fractions were isolated and analyzed by Western blot. Data are representative of three different experiments.
Separation of soluble and polymerized tubulins from MDA-MB231 cells was carried out as described by Minotti et al. (14) with minor modifications. Briefly, after drug exposure, about 5×10^6 cells in 100-mm petri dishes were washed with PBS at 37° C. and harvested in 3 ml of PBS containing 0.4 μg/ml of taxol using a rubber policeman.
Cells were centrifuged and lysed using 250 μl of microtubule-stabilizing buffer (20 mM Tris-HCl, pH 6.8, 140 mM NaCl, 1 mM MgCl2, 2 mM EDTA, 0.5% Nonidet P-40 and 0.4 μg/ml taxol), and then transferred to 1.5 ml microcentrifuge tubes. […] Samples were analyzed by SDS-PAGE and immunoassay was performed as described below.
Samples (1×10^5 cells) were analyzed by 10% SDS-PAGE using the Laemmli system (15). […]

COc1cc2c(c(OC)c1OC)-c1ccc(OC)c(=O)cc1[C@@H](NC(C)=O)CC2 [Colchicine, reference compound]
effect of competitor on formation of modified β-tubulin induced by CEU (β-tubulin [1]): prevented formation of the additional β-tubulin band; also recorded: prevented the formation of modified β-tubulin
effect of competitor on formation of the 50-kDa radiolabeled band by [urea-14C]-4-tBCEU (β-tubulin [1]): inhibition of the formation of the 50-kDa radiolabeled band
effect of pre-treatment on β-tubulin alteration induced by EBI (β-tubulin [1]): abrogated
formation of modified β-tubulin (second immunoreactive band of lower Mr) (β-tubulin [2]): no such band

“Also recorded” adds a separate entry of the source.
